Laboratory results as given in PMC11191095, “QSAR Reveals Decreased Lipophilicity of Polar Residues Determines the Selectivity of Antimicrobial Peptide Activity” (ACS Omega, 2024).

Experiments:
[1] = test system: S. aureus (MRSA) NCTC 13616; format: cell-based, Staphylococcus aureus; conditions: S. aureus (MRSA) NCTC 13616 (R); shown in µM
Description: (§1) Antimicrobial activity was evaluated against a panel of 18 pathogens consisting of eight Gram-negative strains (E. coli NCTC 12923, E. coli LEC001, Pseudomonas aeruginosa PAO1, P. aeruginosa NCTC 13437, Acinetobacter baumannii ATCC 17978, A. baumannii AYE, Klebsiella pneumoniae M6, K. pneumoniae NCTC 13368), four Gram-positive strains (Staphylococcus aureus ATCC 9144, S. aureus NCTC 13616, S. aureus USA300, S. aureus 1199B) and six fungi (Candida auris TDG 1912, C. albicans NCPF 8018, C. krusei NCPF 3876, C. tropicalis NCPF 8760, and C. parapsilosis NCPF 3209). Pathogens were grown in noncation adjusted Mueller Hinton broth (MHB, for bacteria) or Roswell Park Memorial Institute (RPMI 1640) + 2% glucose (for fungi) at 37 °C with 180 rpm shaking and maintained on solid media (tryptic soy agar for bacteria and Sabouraud dextrose agar for fungi). For an antibiogram, see Suppl.
(§2) The 46 peptides were serially diluted (128 to 2 μg/mL) in media down polypropylene 96-well plates. Bacteria or fungi, diluted from an overnight culture to an OD600 of 0.01, were added to the serially diluted peptides at a 1:1 ratio resulting in a starting cell density of ∼5 × 10^5 CFU/mL. Plates were incubated at 37 °C for 20 h, and the optical density was determined spectrophotometrically at 600 nm. Minimum inhibition concentrations (MICs) were determined from a minimum of three biological repeats and are reported in μg/mL as well as μM. […] The MIC50 or MIC90 is defined as the lowest peptide concentration that results in 50% or 90% growth inhibition over a 20 h treatment period, respectively.

[2] = test system: S. aureus (MSSA) ATCC 9144; format: cell-based, Staphylococcus aureus; conditions: S. aureus (MSSA) ATCC 9144 (S); shown in µM
Description: as §1, §2

S. aureus (MRSA) USA300 = format: cell-based, Staphylococcus aureus; conditions: S. aureus (MRSA) USA300 (R); shown in µM
Description: as §1, §2

S. aureus (MRSA) 1199B = format: cell-based, Staphylococcus aureus; conditions: S. aureus (MRSA) 1199B (R); shown in µM
Description: as §1, §2

K. pneumoniae M6 = format: cell-based, Klebsiella pneumoniae; conditions: K. pneumoniae M6 (S); shown in µM
Description: as §1
(§3) The 46 peptides were serially diluted (128 to 2 μg/mL) in media down polypropylene 96-well plates. […] Plates were incubated at 37 °C for 20 h, and the optical density was determined spectrophotometrically at 600 nm. Minimum inhibition concentrations (MICs) were determined from a minimum of three biological repeats and are reported in μg/mL as well as μM. […]

K. pneumoniae NCTC 13368 = format: cell-based, Klebsiella pneumoniae; conditions: K. pneumoniae NCTC 13368 (R); shown in µM
Description: as §1, §3

HaCat cell line = test: In vitro HaCat cytotoxicity (MTT); format: cell-based, human; conditions: 21 h exposure, OD570, relative to untreated control
Description: The HaCat cell line (Cellonex, South Africa) was cultured in Dulbecco’s Modified Eagle Medium (DMEM) supplemented with 10% heat-inactivated fetal calf serum (FCS) and 1% antibiotic-antimycotic (Abs) and maintained at 5–10% CO2, 37 °C, 95% humidity. For cytotoxicity screening, 5.56 × 10^4 cells/mL were plated in a 96-well plate. After 24 h incubation, the cells are initially exposed to each peptide at a concentration of 256 μg/mL or 0.1% Triton-X-100 as the control for 21 h. If cytotoxicity was observed, at a level of significance of p < 0.0001 compared with the untreated control after 21 h, a dose-response assay was undertaken. Cell viability was determined by adding 10% 3-(4,5-dimethyl-2-thiazolyl)-2,5-diphenyl-2H-tetrazolium bromide (MTT) (1 mg/mL), to each well and after a further 3 h incubation the media was discarded, and the formazan crystals dissolved by adding 25% DMSO in ethanol. The absorbance was measured at OD570 by using the FLUOstar Omega multidetection microplate reader (BMG Labtech). Percentage cell viability was calculated relative to the untreated control. The LC50 was defined as the concentration of AMP treatment that results in 50% lethality of HaCat cells and was determined from the dose-response curves.

P. aeruginosa NCTC 13437 = format: cell-based, Pseudomonas aeruginosa; conditions: P. aeruginosa NCTC 13437 (R); shown in µM
Description: as §1, §3

P. aeruginosa PAO1 = format: cell-based, Pseudomonas aeruginosa; conditions: P. aeruginosa PAO1 (S); shown in µM
Description: as §1, §3

A. baumannii AYE = format: cell-based, Acinetobacter baumannii; conditions: A. baumannii AYE (R); shown in µM
Description: as §1, §3

A. baumannii ATCC 17978 = format: cell-based, Acinetobacter baumannii; conditions: A. baumannii ATCC 17978 (S); shown in µM
Description: as §1, §3

C. tropicalis NCPF 8760 = format: cell-based; conditions: shown in µM
Description: as §1, §2

C. krusei NCPF 3876 = format: cell-based; conditions: shown in µM
Description: as §1, §2

C. albicans NCPF 3281 = format: cell-based
Description: as §1, §2

[3] = test system: C. parapsilosis NCPF 3209; format: cell-based
Description: as §1, §2

C. glabrata NCPF 8018 = format: cell-based; conditions: shown in µM
Description: as §1, §2

human erythrocytes = test: In vitro hemolytic activity; format: cell-based; conditions: human erythrocytes in PBS, 1 h, 37 °C, OD550; from dose response curves
Description: Potential erythrocyte hemolysis was tested by incubating serial dilutions of the AMPs in PBS with freshly collected erythrocytes at a ratio of 1:1 in 96-well polypropylene V-shape plates for 1 h at 37 °C. Control wells were treated with 0.1% Triton-X-100 to ensure complete lysis or PBS-only to represent no lysis. The erythrocytes were collected by centrifugation and the OD550 of the supernatant was measured using a plate reader. The percentage hemolysis was calculated as [drawing 1] 1 where Apeptide is the absorbance value of erythrocytes exposed to a known peptide concentration, Agrowth control is the absorbance of erythrocytes exposed to 0.1% Triton-X-100 and Ablank is the absorbance of erythrocytes exposed to the PBS. The concentrations at which a peptide caused 10% (HC10) and 50% (HC50) hemolysis was determined from the dose response curves.

E. coli LEC001 = format: cell-based, Escherichia coli; conditions: E. coli LEC001 (R); shown in µM
Description: as §1, §3

E. coli NCTC 12923 = format: cell-based, Escherichia coli; conditions: E. coli NCTC 12923 (S); shown in µM
Description: as §1, §3

C. auris TDG 1912 = format: cell-based, Candida auris
Description: as §1, §2

[4] = 50% growth inhibition, RPMI 1640 + 2% glucose, 37 °C, 20 h
[5] = 90% growth inhibition, RPMI 1640 + 2% glucose, 37 °C, 20 h

SMILES: CC[C@H](C)[C@H](NC(=O)[C@H](C)NC(=O)[C@H](CCCCN)NC(=O)[C@H](CCCNC(=N)N)NC(=O)[C@@H](NC(=O)[C@H](CC(C)C)NC(=O)[C@H](CO)NC(=O)[C@H](Cc1ccccc1)NC(=O)[C@H](CC(C)C)NC(=O)[C@@H](N)Cc1ccccc1)[C@@H](C)CC)C(=O)NCC(=O)NCC(=O)N[C@@H](CC(C)C)C(=O)N[C@H](C(=O)N[C@@H](CO)C(=O)N[C@@H](C)C(=O)N[C@@H](Cc1ccccc1)C(=O)N[C@@H](CCCCN)C(N)=O)[C@@H](C)CC [A3a]
- Modal MIC [1]: 7.9 µM
- Modal MIC [2]: 7.9 µM
- Modal MIC (S. aureus (MRSA) USA300): 7.9 µM
- Modal MIC (S. aureus (MRSA) 1199B): 3.9 µM
- Modal MIC (K. pneumoniae M6): 15.7 µM
- Modal MIC (K. pneumoniae NCTC 13368): 15.7 µM
- % HaCat cell death at initial screening (256μg/mL) ± SD (HaCat cell line): 100 ± 10.5%
- Modal MIC (P. aeruginosa NCTC 13437): 7.9 µM
- Modal MIC (P. aeruginosa PAO1): 15.7 µM
- Modal MIC (A. baumannii AYE): 7.9 µM
- Modal MIC (A. baumannii ATCC 17978): 3.9 µM
- Modal MIC50 (C. tropicalis NCPF 8760): 31.4 µM
- Modal MIC90 (C. tropicalis NCPF 8760): 31.4 µM
- Modal MIC50 (C. krusei NCPF 3876): 15.7 µM
- Modal MIC90 (C. krusei NCPF 3876): 15.7 µM
- Modal MIC50 (C. albicans NCPF 3281; [4]): > 128 µg/mL
- Modal MIC90 (C. albicans NCPF 3281; [5]): > 128 µg/mL
- Modal MIC50 (C. albicans NCPF 3281; shown in µM): > 62.9 µM
- Modal MIC90 (C. albicans NCPF 3281; shown in µM): > 62.9 µM
- Modal MIC50 [3, 4]: > 128 µg/mL
- Modal MIC90 [3, 5]: > 128 µg/mL
- Modal MIC50 ([3]; shown in µM): > 62.9 µM
- Modal MIC90 ([3]; shown in µM): > 62.9 µM
- Modal MIC50 (C. glabrata NCPF 8018): 62.9 µM
- Modal MIC90 (C. glabrata NCPF 8018): 62.9 µM
- HC10 (concentration causing 10% hemolysis) (human erythrocytes): 24 µg/mL
- Modal MIC (E. coli LEC001): 15.7 µM
- Modal MIC (E. coli NCTC 12923): 7.9 µM
- Modal MIC50 (C. auris TDG 1912; 50% growth inhibition, RPMI 1640 + 2% glucose, 37 °C, 20 h, OD600): > 128 µg/mL
- Modal MIC90 (C. auris TDG 1912; 90% growth inhibition, RPMI 1640 + 2% glucose, 37 °C, 20 h, OD600): > 128 µg/mL
- Modal MIC50 (C. auris TDG 1912; shown in µM): > 62.9 µM
- Modal MIC90 (C. auris TDG 1912; shown in µM): > 62.9 µM

Read-outs that look alike come from different tables or passages of the source.
